Source: US20250304578A1, “NITROGEN-CONTAINING FUSED HETEROCYCLIC COMPOUNDS OF N-SULFONAMIDE AND USE THEREOF” (NUTSHELL THERAPEUTICS (SHANGHAI) CO., LTD., priority 2023, published 2025)

By UniProt entry, the sequences of proteins in these tests, tags left out. Where a name states a change or a piece, a line headed by the entry shows the natural chain unless it says otherwise.
UniProt Q12809: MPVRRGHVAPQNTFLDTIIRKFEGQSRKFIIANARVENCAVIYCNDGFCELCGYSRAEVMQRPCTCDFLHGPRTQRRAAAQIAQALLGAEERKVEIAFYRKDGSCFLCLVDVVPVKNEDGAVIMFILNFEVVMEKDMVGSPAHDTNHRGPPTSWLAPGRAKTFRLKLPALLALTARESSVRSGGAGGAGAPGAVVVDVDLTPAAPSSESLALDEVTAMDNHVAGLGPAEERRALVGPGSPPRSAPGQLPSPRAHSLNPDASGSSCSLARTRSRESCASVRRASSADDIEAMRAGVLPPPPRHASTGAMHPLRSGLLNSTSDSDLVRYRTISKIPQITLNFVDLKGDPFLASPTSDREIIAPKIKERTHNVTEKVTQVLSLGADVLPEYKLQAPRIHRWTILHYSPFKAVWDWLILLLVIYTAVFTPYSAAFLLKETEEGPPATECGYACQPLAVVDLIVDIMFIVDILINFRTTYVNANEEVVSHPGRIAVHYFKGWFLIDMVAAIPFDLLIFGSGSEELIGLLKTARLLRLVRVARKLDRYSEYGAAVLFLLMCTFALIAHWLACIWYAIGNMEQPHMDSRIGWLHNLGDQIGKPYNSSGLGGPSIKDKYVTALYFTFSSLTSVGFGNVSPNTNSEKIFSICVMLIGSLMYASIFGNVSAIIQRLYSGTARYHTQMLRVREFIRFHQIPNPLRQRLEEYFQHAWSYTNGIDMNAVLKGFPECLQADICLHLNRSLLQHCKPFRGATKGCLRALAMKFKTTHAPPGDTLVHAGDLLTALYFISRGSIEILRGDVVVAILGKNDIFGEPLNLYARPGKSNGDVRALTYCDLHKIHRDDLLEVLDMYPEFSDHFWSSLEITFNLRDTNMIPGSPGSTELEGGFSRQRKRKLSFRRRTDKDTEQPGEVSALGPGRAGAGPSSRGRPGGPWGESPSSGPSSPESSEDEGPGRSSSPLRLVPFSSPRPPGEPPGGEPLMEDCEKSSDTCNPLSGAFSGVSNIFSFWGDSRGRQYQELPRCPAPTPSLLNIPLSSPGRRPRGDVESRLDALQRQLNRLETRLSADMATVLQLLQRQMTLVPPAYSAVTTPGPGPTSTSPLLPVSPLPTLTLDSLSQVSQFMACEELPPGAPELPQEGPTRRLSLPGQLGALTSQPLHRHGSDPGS

Tests used:
[1] = molecular target: voltage-gated potassium channel hERG (Homo sapiens (Human), UniProt Q12809); assay: hERG potassium channel inhibitory activity test (manual patch clamp, HEK293)
[2] = tested on: CYP3A4/5; assay: Multi-concentration inhibitory activity curve of CYP3A4/5 enzymes; format: in vitro ADME; conditions: pH 7.4, probe midazolam; human liver microsomes; substrate midazolam
Experimental: The buffer was filtered through a 0.45 μm filter.
Liver microsome working solution (final system concentration of 0.5 mg/mL) was prepared. […] The above stock solution was diluted with acetonitrile (4-fold dilution, 6 non-zero concentrations).
The half-maximal inhibitory concentration (IC50) was calculated using Graph Pad Prism.

CNC(=O)c1ccc(NCC#Cc2cc3c(N[C@@H]4CCN(C)C[C@@H]4F)cccn3c2CC(F)(F)F)c(OC)c1 [Cpd-C, 4-((3-(8-(((3S,4R)-3-Fluoro-1-methylpiperidin-4-yl)amino)-3-(2,2,2-trifluoroethyl)indolizin-2-yl)prop-2-yn-1-yl)amino)-3-methoxy-N-methylbenzamide, reference compound]
IC50 [1]: 1.4 µM

COc1cc(S(C)(=O)=O)ccc1NCC#Cc1nc2c(N[C@@H]3CCN(C)C[C@@H]3F)cccn2c1CC(F)(F)F [Cpd-B, reference compound]
IC50 at 10 min [2]: 5.8 µM
IC50 [1]: 5.5 µM
